# In published antibiotic growth screens (doi:10.1038/s41589-023-01349-8):
# This is one part of the list.
# System: A. baumannii ATCC 17978
# Test: relative growth (fraction of control); higher = less inhibition
# Conditions: 50 µM
row,SMILES,relative growth
1,COCC#Cc1cnc2c(c1)C(=O)N([C@H](C)CO)C[C@H](C)[C@@H](CN(C)S(=O)(=O)c1cccc(OC)c1)O2,1.03
2,O=C(C1=C[C@@H](c2coc3ccccc3c2=O)C[C@@H](OCCCCO)O1)N1CCN(Cc2ccc3c(c2)OCO3)CC1,0.818
3,CO[C@@H]1CN(C)C(=O)c2ccc(NC(=O)c3ccccc3)cc2OC[C@H](C)N(C(=O)CN(C)C)C[C@H]1C,1.17
4,Nc1nnc(N[C@H]2CCCCNC2=O)[nH]1,0.748
5,CSc1nc(-c2ccccc2)cc(-c2cccs2)c1C#N,1.11
6,Fc1ccc(C2=NNC3=NCCN3C2)cc1F,0.965
7,CCc1c(C)[nH]c(N2CCOCC2)nc1=O,0.886
8,OC[C@H]1O[C@@](CO)(O[C@@H]2O[C@H](CO)[C@@H](O)[C@H](O)[C@H]2O)[C@@H](O[C@@H]2O[C@H](CO)[C@@H](O)[C@H](O)[C@H]2O)[C@@H]1O,1.24
9,Cc1ccccc1S(=O)(=O)N(C)C[C@@H]1Oc2ccc(NC(=O)Nc3cc(Cl)cc(Cl)c3)cc2CC(=O)N([C@@H](C)CO)C[C@@H]1C,0.979
10,CO/N=C(\C(=O)NC1C(=O)N2C(C(=O)OCOC(=O)C(C)(C)C)=C(/C=C\c3scnc3C)CSC12)c1csc(N)n1 (centres undefined),0.835
11,N[C@@H](C(=O)N[C@@H]1C(=O)N2C(C(=O)O)=C(Cl)CS[C@H]12)c1ccccc1,0.16
12,O=C(C[C@@H]1CC[C@@H]2[C@H](COC[C@H](O)CN2CC2CCOCC2)O1)N1CCOCC1,1.06
13,COc1ccc(C(=O)NCc2ccc(OCCN(C)C)cc2)cc1OC,1.06
14,COc1ccccc1O[C@@H](C)C(=O)NN,1.05
15,O=C(CS)NCCCCCCNC(=O)[C@@H]1C[C@@H]2C(=O)N[C@@H](Cc3ccccc3)C(=O)N2[C@@H]1c1ccc(O)cc1,0.969
16,O=C(C[C@H]1CC[C@@H](NC(=O)Cc2ccccn2)[C@H](CO)O1)NCCCN1CCOCC1,0.933
17,CCN(CC)C(=O)C1(c2ccccc2)CC1CN.Cl (centres undefined),0.969
18,COCC#Cc1ccc2c(c1)O[C@@H](CN(C)Cc1ccc(F)cc1)[C@H](C)CN([C@H](C)CO)S2(=O)=O,0.99
19,O=C(N[C@@H]1CC[C@@H](CCNS(=O)(=O)c2ccccc2)O[C@H]1CO)c1cnccn1,1.07
20,CCOC(=O)CNc1nnc(N)[nH]1,1.17
21,Cc1ccccc1Nc1nnc(C)c(=O)n1N,1.11
22,Cc1ccsc1/C=C/C1=NCCCN1C.O=C(O)CC(O)(CC(=O)O)C(=O)O,0.929
23,COc1ccc(-c2cc(C(F)F)nn2-c2ccc(S(N)(=O)=O)cc2)cc1F,1.04

row,SMILES,relative growth
1,Cc1ccc2nc(-c3ccncc3)cc(-c3ccccc3)c2c1,0.931
2,Cc1cccc2c1OCC[C@@H](N)C2=O,0.987
3,CC(=O)OCC(=O)[C@@]12OC(C)(C)O[C@@H]1CC1C3C[C@H](F)C4=CC(=O)C=C[C@]4(C)[C@@]3(F)[C@@H](O)C[C@@]12C (some centres undefined),1.32
4,CC(C)NC(=O)N[C@H]1CCCCNC1=O,0.96
5,O=c1c2cc(O)c(O)cc2oc2cc(O)c(C3O[C@H](CO)[C@@H](O)[C@H](O)[C@H]3O)c(O)c12 (some centres undefined),1.04
6,O=C(C[C@H]1C=C[C@@H](NC(=O)CN2CCOCC2)[C@H](CO)O1)NCCc1ccncc1,0.968
7,Cl.O=c1n(CCCN2CCN(c3cccc(Cl)c3)CC2)nc2ccccn12,0.83
8,COc1ccc(-c2ccc3c(c2)O[C@@H](CN(C)CC2CCOCC2)[C@@H](C)CN([C@H](C)CO)S3(=O)=O)cc1,0.964
9,C[C@H](CO)N1C[C@H](C)[C@H](CN(C)Cc2cncnc2)Oc2cc(C3=CCCCC3)ccc2S1(=O)=O,0.755
10,O=Cc1ccccc1O[C@@H]1O[C@H](CO)[C@H](O)[C@@H](O)[C@H]1O,1.02
11,O=C(C[C@@H]1CC[C@H](NC(=O)c2cnccn2)[C@H](CO)O1)NCc1ccccc1F,0.951
12,C[C@@H]1CN([C@H](C)CO)S(=O)(=O)c2ccc(-c3cccc(C(=O)N(C)C)c3)cc2O[C@H]1CN(C)C(=O)Cc1ccccn1,1.1
13,C=Cn1cnc2c1c(=O)n(C)c(=O)n2C,0.916
14,CN1C(=O)c2cc(NC(=O)c3cscn3)ccc2OC[C@H]2O[C@@H](CC(=O)N3CCOCC3)CC[C@H]21,1
15,COc1ccc(C(=O)/C=C/c2ccccc2)cc1,0.888
16,CC(=O)Nc1ccc(CC(=O)O)cc1,1.07
17,C[C@@H](CN1CC(=O)NC(=O)C1)N1CC(=O)NC(=O)C1,0.99
18,CC(=O)O[C@@H]1[C@H](OC(C)=O)N(C)C(=O)N1C,1.05
19,C[C@@H]1CN([C@@H](C)CO)C(=O)c2cc(-c3ccncc3)cnc2O[C@H]1CN(C)S(=O)(=O)c1ccc(F)cc1,1.01
20,CCC(=O)Nc1ccc(C)c(C)c1,0.883
21,O=C1NCCc2c(O)cccc21,1
22,Cc1nc2n(c(=O)c1CCN1CCC(c3noc4cc(F)ccc34)CC1)CCCC2,1
23,COC(=O)[C@]1(C)CCC[C@]2(C)c3ccc(C(C)C)cc3C(=O)CC12 (some centres undefined),0.891

row,SMILES,relative growth
1,C[C@@H]1CN([C@H](C)CO)S(=O)(=O)c2ccc(-c3cncnc3)cc2O[C@H]1CN(C)C(=O)Cc1ccccc1,0.93
2,NC(=S)Nc1nc2ccccc2[nH]c1=O,0.899
3,CC(C)C1=CC2=CCC3[C@](C)(CCC[C@]3(C)C(=O)O)C2CC1 (some centres undefined),0.981
4,C[C@@H]1CN([C@H](C)CO)S(=O)(=O)c2ccc(C#CC3(O)CCCC3)cc2O[C@H]1CN(C)C(=O)Cc1ccccc1,0.992
5,Cc1ccc(NC(=O)c2cc(=O)[nH]c(=O)[nH]2)cc1,1.17
6,O=C(Nc1cccc2cccnc12)[C@H]1[C@@H](c2ccc(C(F)(F)F)cc2)CC(=O)N1C(=O)OCc1ccccc1,1.09
7,COc1oc(C(=O)NC2CCCCC2)c(-c2ccc(Cl)cc2)c1S(=O)(=O)c1ccccc1Cl,0.873
8,C#C[C@]1(OC(C)=O)CCC2C3CCC4=C[C@@H](OC(C)=O)CCC4C3CC[C@@]21C (some centres undefined),1.15
9,O=C(NCC[C@@H]1CC[C@H](NS(=O)(=O)c2cccc(F)c2)[C@H](CO)O1)C1CC1,0.993
10,C[C@@H]1CN([C@@H](C)CO)S(=O)(=O)c2ccc(-c3cncnc3)cc2O[C@@H]1CN(C)C(=O)c1ccc2c(c1)OCO2,0.997
11,O=C(C[C@H]1C=C[C@H](NS(=O)(=O)c2ccccc2)[C@@H](CO)O1)NCc1ccncn1,1.06
12,CO[C@H]1CN(C)C(=O)c2cc(NS(C)(=O)=O)ccc2OC[C@H](C)N(C(=O)C2CCOCC2)C[C@@H]1C,0.964
13,COc1ccc([C@@H]([C@H](Cc2ccccc2)OC(C)=O)N2C[C@@H](CC(=O)N(C)C)[C@@H]3C(=NO[C@H]3c3ccccc3)[C@@H]2Cc2ccccc2)cc1,1.15
14,O=C(C[C@H]1C=C[C@H](NC(=O)CN2CCOCC2)[C@@H](CO)O1)NCc1cccc(F)c1,0.887
15,COc1cccc(S(=O)(=O)N(C)C[C@H]2Oc3cc(C#CCC(C)C)ccc3S(=O)(=O)N([C@@H](C)CO)C[C@H]2C)c1,1.32
16,C=C1C(=O)O[C@@H]2C[C@@]3(C)CCC[C@H](C)C3=C[C@H]12,1.09
17,O=C(C[C@H]1C=C[C@H](NS(=O)(=O)c2ccc(F)cc2)[C@@H](CO)O1)NCc1ccc(Cl)c(Cl)c1,0.961
18,COc1ccc(S(=O)(=O)N[C@H]2C=C[C@@H](CC(=O)N3CCN(c4ccccc4)CC3)O[C@H]2CO)cc1,0.999
19,O=C(O)c1cc(-c2ccc(F)cc2F)ccc1O,1.01
20,CCSc1cccc2cccnc12,0.96
21,CC(C)c1nc(N(C)S(C)(=O)=O)nc(-c2ccc(F)cc2)c1/C=C/[C@@H](O)C[C@@H](O)CC(=O)[O-].[Ca+2],1.08
22,COc1cccc(S(=O)(=O)N[C@H]2C=C[C@@H](CC(=O)NC3CCC3)O[C@@H]2CO)c1,1.2
23,CCCCNC(=O)NS(=O)(=O)c1ccc(C)cc1,0.951

row,SMILES,relative growth
1,Cc1cc(NC(=O)[C@@H]2CCCN2)no1,0.993
2,O=C(O)CCc1nnc2ccc(Cl)nn12,1.01
3,CN1CCC[C@@H]1CCO[C@](C)(c1ccccc1)c1ccc(Cl)cc1.O=C(O)/C=C/C(=O)O,1.11
4,CCCC(C(=O)OCCN(CC)CC)(c1ccccc1)c1ccccc1.Cl,0.698
5,NCCNC(=O)c1nc(-c2ccc(Br)o2)no1,1.02
6,CCOC(=O)/C(=N/O)C1=NNC(=N)SC1,1.15
7,COC(=O)c1c(C)cc(O)cc1O,0.909
8,O=C(/C=C/c1ccc(O)c(O)c1)O[C@@H]1O[C@H](CO)[C@@H](O)[C@H](O)[C@H]1O,1.03
9,Cc1ccc2[nH]c3c(c2c1)CCC[C@H]3Nc1ccc(Cl)cc1,1.03
10,O=C(Nc1c(Cl)cncc1Cl)c1ccc(OC(F)F)c(OCC2CC2)c1,1.19
11,CCOC(=O)OC(C)OC1=C(C(=O)Nc2ccccn2)N(C)S(=O)(=O)c2ccccc21 (centres undefined),1.07
12,C[C@@H]1CN([C@@H](C)CO)C(=O)CCCn2cc(nn2)CO[C@H]1CN(C)C(=O)c1ccc(N2CCN(C)CC2)cc1,1.13
13,COc1ccccc1CNS(C)(=O)=O,0.929
14,COc1ccccc1C#Cc1ccc2c(c1)O[C@H](CN(C)Cc1ccncc1)[C@@H](C)CN([C@H](C)CO)S2(=O)=O,1.02
15,CN(C)CCCNC(=O)C[C@H]1C=C[C@H](NC(=O)Cc2cccnc2)[C@@H](CO)O1,0.998
16,CCn1cc(C(=O)O)c(=O)c2cnc(N3CCCC3)nc21,0.997
17,O=C(C[C@@H]1CC[C@@H]2[C@H](COC[C@@H](O)CN2C(=O)c2ccccc2F)O1)N1CCN(c2ccccc2)CC1,0.864
18,O=C(CN1CCOCC1)N[C@H]1CC[C@H](CCn2cc(C3CC3)nn2)O[C@@H]1CO,0.986
19,O=C(O)CCC(=O)N[C@H]1CCCCNC1=O,1.06
20,CN(C)CCCNC(=O)C[C@@H]1C=C[C@H](NC(=O)Cc2cccnc2)[C@@H](CO)O1,1.04
